The values that follow are results of earlier work, collected in patent US6347239B1, “Method of evaluating the efficacy of drug on brain nerve cells” (priority 1998, dated 2002).

The data set concerns patients with ALS. Conditions: phase III clinical trials (Bensimon 1994; Lacomblez 1996); cited from earlier work.

Consider `Nc1nc2ccc(OC(F)(F)F)cc2s1` [RILUZOLE, 2-amino-6-trifluoromethoxy-benzothiazole], for which the “survival of patients with ALS” value was “prolong the life”.
